{"source": "PubChem BioAssay AID2742", "about": "(NMMLSC, 2010)", "assay": "modulators of MEP2-GFP levels in yeast, dose response, S. cerevisiae, flow cytometry GFP, MLPCN hits (AID 2742);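 further: GFP tag reports level of MEP2 protein as a downstream target of TOR signalling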", "conditions": "S. cerevisiae MEP2-GFP strain, 3 h, at 33 µM (top of the series)", "note": "Only a part is listed here, and it is no random draw. Activity calls are given as the source filed them.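 How the source made its calls: active means fitted half-maximal concentration for changing background-corrected GFP signal at or below a set limit; inactive means the rest.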"}
{"smiles": "C[N+]1=C2C=CC=CC=C2SC12C([N+](=O)[O-])=CC([N+](=O)[O-])=C[C-]2[N+](=O)[O-]", "note": "(stereo unspecified)", "values": [{"measurement": "GFP fluorescence (kMESF), higher = increase", "result": "inactive: 6.1%"}]}
